The experiment is filed under the species Homo sapiens. Description: Selectivity index, ratio of Ki for recombinant human CB1 receptor to Ki for recombinant human CB2 receptor.

With `CC1CCC(NC(=O)c2c(O)c3cccnc3n(Cc3ccc(F)cc3)c2=O)CC1` (configuration not stated), the Ratio Ki stood at 184. The figure for `CCCCCn1c(=O)c(C(=O)NC2CCC(C)CC2)cc2ccccc21` (configuration not stated) is 147.

(Values after ChEMBL document CHEMBL3421611, “New quinolone- and 1,8-naphthyridine-3-carboxamides as selective CB2 receptor agonists with anticancer and immuno-modulatory activity” (Eur J Med Chem, 2015).)
